Results from patent US7427395B2, “Chemotherapeutic agent-incorporated pharmaceutical preparation” (Genomidea Inc., priority 2002, dated 2008).
Read-outs that look alike come from different tables or passages of the source.

Tested on: mouse colon carcinoma cell CT26

Substance: bleomycin
- degree of viable cells in percentage relative to the medium group (=100%) (bleomycin 500 ng/well): 89.4%
- degree of viable cells in percentage relative to the medium group (=100%) (bleomycin 5 μg/well): 74.8%
- degree of viable cells in percentage relative to the medium group (=100%) (bleomycin 50 μg/well): 33.9%
